## Binding of CDR-mutated scFvs to a peptide of the spike HR2 region

Data: MIT Lincoln Laboratory AlphaSeq set, Li et al. 2023, doi:10.1038/s41467-023-39022-2, as distributed in FLAb.

Target: peptide PDVDLGDISGINAS, taken from heptad repeat 2 (HR2) of SARS-CoV-2 spike.

Each scFv is VH, a 15-residue (Gly4Ser)3 linker, VL, as in the parent Ab-14, and differs from it in the CDRs of the heavy chain only.
VH: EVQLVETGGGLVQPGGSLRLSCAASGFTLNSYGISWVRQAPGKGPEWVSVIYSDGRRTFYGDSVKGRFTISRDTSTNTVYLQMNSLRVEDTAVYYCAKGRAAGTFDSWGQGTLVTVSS
VL: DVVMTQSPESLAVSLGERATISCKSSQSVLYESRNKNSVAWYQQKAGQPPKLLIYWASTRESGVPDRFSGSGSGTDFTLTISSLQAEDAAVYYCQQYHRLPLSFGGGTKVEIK

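The parent was found by panning a naive human phage display library on the peptide. These sequences belong to a second round, designed from the earlier measurements on random variants of the parent. Their group label is 14H_GP_Gibbs (GP: Gaussian process model; Gibbs: Gibbs sampling; a sequence that several methods proposed may carry one label only). Affinity was read by AlphaSeq, a pooled yeast mating assay with surface-displayed partners. After mating in shaken culture at 30 °C for 16 h, diploids were selected and their barcode pairs sequenced. A regression on co-assayed BCL2-family reference pairs converts the normalised counts of each replicate to an apparent Kd. There are six technical replicates.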

Sequences are complete VH domains.
Values are log10 of the apparent Kd in nM; lower means stronger binding.
Where no diploid with the target was found in that replicate, the entry reads "nd": below detection, most likely a poor binder, though not proof of it.
The range of this assay differs from that of the first round, and the authors advise against merging the two.
In the paper, a design with two or fewer of six values counts as a poor binder.
Nonspecific signal, from three strains lacking the peptide, appeared in 1% of pairings of all heavy chain designs, centred on 2.08 (5% of these signals below 0.84); values are not corrected for it. Also given: how often the same scFv was detected with the empty control strains, with their mean in brackets.
Of ten entries with the parent sequence, four were seen in most replicates (averages 0.34 to 2.37), three in one and three in none, so single entries are noisy.

VH,"replicates, log10 nM",signal with controls
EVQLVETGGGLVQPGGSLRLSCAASGFELNSYGISWVRQAPGKGPEWVSVIYSDGRRTFYADQVKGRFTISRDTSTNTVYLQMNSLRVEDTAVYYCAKGWTAGTFDSWGQGTLVTVSS,0.24 0.57 0.01 1.18 -0.18 0.03,0 of 18
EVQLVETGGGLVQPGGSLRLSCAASGFELNNYGISWVRQAPGKGPEWVSVIYSDGRRTFYSDSVKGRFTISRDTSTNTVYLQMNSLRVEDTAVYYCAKGKTAGTFDSWGQGTLVTVSS,0.59 0.33 0.13 0.35 0.35 0.17,0 of 18
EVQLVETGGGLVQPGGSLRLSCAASGFWLNEYGISWVRQAPGKGPEWVSVIYSDGRRTFYADSVKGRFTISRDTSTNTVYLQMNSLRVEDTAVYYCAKGTAAGTFDSWGQGTLVTVSS,0.47 0.56 0.27 0.65 0.74 1.17,1 of 18 (2.28)
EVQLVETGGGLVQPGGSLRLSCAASGFSLNSYGISWVRQAPGKGPEWVSVIYSDGRRTFYGDKVKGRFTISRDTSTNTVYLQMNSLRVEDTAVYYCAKGQAAGTFDKWGQGTLVTVSS,nd 2.25 2.08 nd nd nd,0 of 18
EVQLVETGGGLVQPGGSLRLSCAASGFNLNSYGISWVRQAPGKGPEWVSVIYSDGRRTFYGDAVKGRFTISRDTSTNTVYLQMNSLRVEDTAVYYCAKGKIAGTFDSWGQGTLVTVSS,0.83 0.91 0.99 1.00 1.46 1.46,0 of 18
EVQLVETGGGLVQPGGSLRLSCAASGFSLNSYGISWVRQAPGKGPEWVSVIYSDGRRTFYHDDVKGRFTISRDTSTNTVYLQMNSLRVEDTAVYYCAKGRTAGTFDSWGQGTLVTVSS,0.29 0.09 -0.48 -0.36 0.06 -0.08,0 of 18
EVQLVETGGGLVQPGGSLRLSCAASGFGLNEYGISWVRQAPGKGPEWVSVIYSDGRRTYYGDSVKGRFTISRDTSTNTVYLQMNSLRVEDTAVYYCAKGRTAGTFDSWGQGTLVTVSS,1.14 0.41 0.68 0.81 0.62 0.94,0 of 18
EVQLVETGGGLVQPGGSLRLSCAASGFSLNSYGISWVRQAPGKGPEWVSVIYSDGRRTFYGDSVKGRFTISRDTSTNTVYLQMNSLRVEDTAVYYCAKGQVAGTFDLWGQGTLVTVSS,-0.68 nd -0.73 -1.14 -0.64 nd,0 of 18
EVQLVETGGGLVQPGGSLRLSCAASGFDLNSYGISWVRQAPGKGPEWVSVIYSDGRRTFYGDSVKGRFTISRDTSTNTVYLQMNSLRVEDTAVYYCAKGKNAGTFDGWGQGTLVTVSS,nd nd 0.27 1.78 nd nd,0 of 18
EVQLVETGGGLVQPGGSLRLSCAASYFSLNSYGISWVRQAPGKGPEWVSVIYSDGRRTFYGDSVKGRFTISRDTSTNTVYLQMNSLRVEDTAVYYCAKGRNAGTFDSWGQGTLVTVSS,nd nd nd nd nd nd,0 of 18
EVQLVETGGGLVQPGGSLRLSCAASGFQLNEYGISWVRQAPGKGPEWVSVIYSDGRRTFYGDSVKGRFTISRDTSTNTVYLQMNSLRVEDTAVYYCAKGSAAGTFDLWGQGTLVTVSS,nd nd nd nd nd nd,0 of 18
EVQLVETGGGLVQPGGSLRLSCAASGFDLNTYGISWVRQAPGKGPEWVSVIYSDGRRTFYCDSVKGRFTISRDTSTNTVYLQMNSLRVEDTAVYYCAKGQAAGTFDSWGQGTLVTVSS,0.51 0.93 -0.15 1.70 0.50 0.39,0 of 18
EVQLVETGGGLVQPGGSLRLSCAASGFKLNSYGISWVRQAPGKGPEWVSVIYSDGRRTFYTDSVKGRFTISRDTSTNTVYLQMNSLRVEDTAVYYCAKGREAGTFDSWGQGTLVTVSS,0.72 0.12 -0.30 -0.29 0.31 0.32,0 of 18
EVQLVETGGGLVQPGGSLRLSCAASGFQLNSYGISWVRQAPGKGPEWVSVIYSDGRRTFYSDQVKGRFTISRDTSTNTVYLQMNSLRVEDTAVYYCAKGKAAGTFDSWGQGTLVTVSS,1.22 0.96 0.73 1.17 1.43 1.43,0 of 18
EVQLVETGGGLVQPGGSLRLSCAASGFTLNSYGISWVRQAPGKGPEWVSVIYSDGRRTFYVDDVKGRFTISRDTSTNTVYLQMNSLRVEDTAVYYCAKGQAAGTFDTWGQGTLVTVSS,0.32 1.19 0.77 0.46 1.12 1.44,1 of 18 (1.52)
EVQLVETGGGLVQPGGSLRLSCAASGFQLNEYGISWVRQAPGKGPEWVSVIYSDGRRTFYDDQVKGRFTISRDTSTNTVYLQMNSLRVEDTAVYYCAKGRTAGTFDSWGQGTLVTVSS,0.17 -0.03 0.16 -0.12 -0.15 0.39,0 of 18
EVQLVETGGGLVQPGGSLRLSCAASGFWLNMYGISWVRQAPGKGPEWVSVIYSDGRRTFYGDSVKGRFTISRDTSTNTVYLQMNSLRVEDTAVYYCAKGREAGTFDTWGQGTLVTVSS,nd 0.61 1.04 1.62 1.24 1.28,0 of 18
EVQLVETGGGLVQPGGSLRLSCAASGFNLNSYGISWVRQAPGKGPEWVSVIYSDGRRTFYKDSVKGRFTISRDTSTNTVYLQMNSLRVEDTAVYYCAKGSTAGTFDSWGQGTLVTVSS,0.51 0.07 0.12 0.45 0.07 0.23,0 of 18
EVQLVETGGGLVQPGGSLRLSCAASPFDLNSYGISWVRQAPGKGPEWVSVIYSDGRRTFYADSVKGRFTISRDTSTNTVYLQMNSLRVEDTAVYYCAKGQTAGTFDSWGQGTLVTVSS,0.16 0.55 nd -0.91 0.41 0.99,0 of 18